The values below are quoted from earlier work in US6469063B1, “Inhibition of inflammation via inhibition of COX-2 gene transcription” (City of Hope, priority 1999, dated 2002).

Chains of the proteins cited; added tags and fusions are not shown. Residues count along the entry.
UniProt P35354, 18-604: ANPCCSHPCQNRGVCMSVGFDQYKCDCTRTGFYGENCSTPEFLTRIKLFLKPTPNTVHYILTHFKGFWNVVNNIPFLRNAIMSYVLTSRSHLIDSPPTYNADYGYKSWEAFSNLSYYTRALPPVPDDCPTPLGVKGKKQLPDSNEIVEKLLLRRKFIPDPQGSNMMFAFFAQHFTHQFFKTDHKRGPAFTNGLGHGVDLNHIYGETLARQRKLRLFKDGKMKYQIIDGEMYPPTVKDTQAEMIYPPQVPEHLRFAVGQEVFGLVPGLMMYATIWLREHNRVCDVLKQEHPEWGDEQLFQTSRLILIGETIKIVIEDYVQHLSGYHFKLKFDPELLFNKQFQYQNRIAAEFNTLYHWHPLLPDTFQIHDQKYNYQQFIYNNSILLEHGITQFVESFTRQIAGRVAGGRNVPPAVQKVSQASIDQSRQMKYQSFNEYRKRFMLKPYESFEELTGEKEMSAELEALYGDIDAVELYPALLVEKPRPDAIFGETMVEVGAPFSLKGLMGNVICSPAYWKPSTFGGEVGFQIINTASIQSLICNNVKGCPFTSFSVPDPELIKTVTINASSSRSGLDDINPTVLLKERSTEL
UniProt P23219, 24-599: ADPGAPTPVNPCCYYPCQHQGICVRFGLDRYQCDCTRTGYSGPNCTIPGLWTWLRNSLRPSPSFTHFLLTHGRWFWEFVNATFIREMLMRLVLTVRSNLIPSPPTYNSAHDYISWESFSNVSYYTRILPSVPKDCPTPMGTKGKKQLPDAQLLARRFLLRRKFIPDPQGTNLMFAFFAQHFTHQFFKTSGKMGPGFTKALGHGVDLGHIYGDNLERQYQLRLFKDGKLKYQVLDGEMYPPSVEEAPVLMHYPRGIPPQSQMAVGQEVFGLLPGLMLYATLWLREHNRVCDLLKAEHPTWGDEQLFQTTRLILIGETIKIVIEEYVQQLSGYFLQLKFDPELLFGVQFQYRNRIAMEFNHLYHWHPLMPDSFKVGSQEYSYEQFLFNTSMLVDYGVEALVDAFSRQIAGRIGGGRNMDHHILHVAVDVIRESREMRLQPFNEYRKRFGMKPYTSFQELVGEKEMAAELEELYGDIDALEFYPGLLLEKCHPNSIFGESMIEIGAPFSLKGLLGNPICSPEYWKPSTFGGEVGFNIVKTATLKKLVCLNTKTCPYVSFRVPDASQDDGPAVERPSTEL

The structures appear in SMILES notation.

One series concerns the target COX-2 (Homo sapiens, UniProt P35354). The following applies: low concentration; cited from earlier work.
For the next series, the target named is COX-1 (Homo sapiens, UniProt P23219). The following applies: low concentration; cited from earlier work.

`O=C(/C=C/c1ccc(O)c(O)c1)OCCc1ccccc1` [CAPE, caffeic acid phenethyl ester]: the “concentration inhibiting COX-2 enzyme activity” value on COX-2 was 14 to 28 µM. Moreover, the “concentration inhibiting COX-1 enzyme activity” value on COX-1 was 14 to 28 µM.
